# Source: patent US8653304B2, “2,3-dihydro-1H-indene-2-yl urea derivative and pharmaceutical application of same” (Toray Industries, Inc., priority 2009, dated 2014)
# By UniProt entry, the sequences of proteins in these tests, tags left out.
# UniProt Q16539, whole entry: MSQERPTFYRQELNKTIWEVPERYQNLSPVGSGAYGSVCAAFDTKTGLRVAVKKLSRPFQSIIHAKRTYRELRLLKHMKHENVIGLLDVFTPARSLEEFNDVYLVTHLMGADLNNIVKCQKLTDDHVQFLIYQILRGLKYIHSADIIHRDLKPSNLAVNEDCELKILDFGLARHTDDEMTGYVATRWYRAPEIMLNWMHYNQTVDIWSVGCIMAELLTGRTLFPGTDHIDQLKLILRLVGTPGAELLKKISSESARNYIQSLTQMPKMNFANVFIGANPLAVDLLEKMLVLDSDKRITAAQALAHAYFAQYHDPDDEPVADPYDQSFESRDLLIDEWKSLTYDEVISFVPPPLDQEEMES
# Target: human p38 MAPK α (Homo sapiens (Human), UniProt Q16539)
# Assay: Evaluation of p38 MAPK inhibitory activity (Alpha Screen, ATF2 phosphorylation)
# Assay type: biochemical
# Conditions: p38α/SAPK2a 1.5 nM, ATP 100 μM, biotinylated ATF2 30 nM
# Procedure: Using human p38 MAPK α, the p38 MAPK inhibitory activity of Compound (I) was studied by a method partially modified from the method described in Current Medicinal Chemistry (2004, No. 11, pp. 721-730).
# A solution of each test compound solution in 100% DMSO and a p38α/SAPK2a solution (Final Concentration: 1.5 nM) (Invitrogen) were added to a 384-well plate, and then the plate was incubated at room temperature in a dark place for 1 hour. Thereafter, ATP (Final Concentration: 100 μM), which is a phosphate donor, and biotinylated ATF2 (Final Concentration: 30 nM) (upstate), which is a substrate, were added, and the resulting mixture was allowed to react at room temperature in a dark place for 1 hour (the final concentration of DMSO was 0.25%). After the reaction, an anti-phosphorylated ATF2 antibody (Final Concentration: 1 nM) (Cell Signaling), anti-IgG acceptor beads (Final Concentration: 20 μg/mL) (PerkinElmer) and streptavidin donor beads (Final Concentration: 20 μg/mL) (PerkinElmer) were added, and the resultant was incubated at room temperature in a dark place for 1 hour. Using a microplate analyzer (Fusion-α, Packard) in Alpha Screen method (Amplified Luminescent Proximity Homogeneous Assay), the light emission was detected. The IC50 value of each compound was calculated by sigmoidal dose-response regression using Prism 4.02 (GraphPad Software, Inc.). As a comparative control compound, Comparative Compound 1 was used.
row,IC50 [nM],Compound
1,13,"COc1c(NC(=O)N[C@@H]2Cc3ccccc3[C@@H]2O)cc(C2(C)CCOCC2)cc1[C@H](O)C(F)(F)F (single isomer, unassigned) [Compound 108b]"
2,3,"COc1c(CO)cc(C(C)(C)C)cc1NC(=O)N[C@@H]1Cc2c(F)cccc2[C@@H]1O [Compound 3, 1-(5-tert-butyl-3-(hydroxymethyl)-2-methoxyphenyl)-3-((1S,2R)-4-fluoro-1-hydroxy-2,3-dihydro-1H-indene-2-yl)urea]"
3,51,"COc1c(NC(=O)N[C@@H]2Cc3ccccc3[C@@H]2O)cc(N2CCCC2)cc1[C@H](O)C(F)(F)F (single isomer, unassigned) [Compound 92b]"
